{
  "source": "patent EP1285918A1",
  "about": "“C7 Ester substituted taxanes as antitumor agents” (Florida State University Research Foundation, Inc., priority 2001, dated 2003)",
  "key": {"[1]": {"test_system": "Panc-1 Human Pancreatic Carcinoma Xenografts", "conditions": "for stable disease / toxic deaths: Panc-1, 6 mice/group; for stable disease: i.v. qd x 1 (mg/kg: Taxol 24, 1393 72.6, 1418 107.6), Day 63; for toxic deaths: i.v. qd x 1 (mg/kg: Taxol 24, 1351 75.32, 1393 72.6, 1401 107.6, 1418 107.6, 1424 195.1)", "procedure": "(§1) Other antitumor compounds were similarly formulated. […] The dosing volume was 0.3 mL per 20 g mouse.\nFemale NCr-nude mice (6-8 weeks of age, implanted subcutaneously with 1 mm^3 Panc-1 pancreatic carcinoma fragments in the flank) were sorted into treatment groups of six mice each. […] Dosing was initiated on Day 1. The antitumor compounds were given i.v. at an estimated maximum tolerated dose (MTD) appropriate for each agent on a qd x 1 schedule (single administration of compound). […] Taxotere was given i.v. at a dose of 70 mg/kg on a qd x 1 schedule. The vehicle was given i.v. to control mice in Group 1 in each test on Day 1 (qd x 1) schedule. Treatment groups are detailed in Table 12. The study was terminated on Day 63.\nThe mean days of survival is the number of days after which a neoplasm reached a size of 1.5 g and the animal was euthanized. A complete response is obtained if the tumor is not palpable at the end of the study. A partial response is obtained if the tumor shrinks to a size smaller than its size on Day 1 of the study."}, "[2]": {"test_system": "SKMES Human Lung Carcinoma Xenograft", "conditions": "for complete responses: SKMES, 6 mice, Day 60", "procedure": "Antitumor compounds were formulated for oral administration over a wide dose range in a study to investigate the efficacy of this compound against the SKMES human lung cancer xenograft. The antitumor compounds were prepared in the following vehicle: 5% ethanol, 5% Cremophor and 90% isotonic saline.\n(§2) Female Nu/Nu mice (6-8 weeks of age; implanted with 1 mm^3 SKMES lung carcinoma fragments in the flank) were sorted into treatment groups of six mice each. SKMES size ranges and group mean SKMES size ranges were 126-448 mg and 238-241 mg, respectively. […] Treatments were administered as a single oral bolus on Day 1, and the study was terminated on Day 60.\nThe mean days of survival is the number of days after which a SKMES neoplasm reached a size of 2.0 g and the animal was euthanized. A complete response is obtained if the tumor is not palpable at the end of the study. A partial response is obtained if the tumor shrinks to a size smaller than its size on Day 1 of the study. […]"}, "[3]": {"test_system": "A375 Human Melanoma Xenograft", "conditions": "1393 104 mg/kg single oral bolus (Group 3), 10 mice, Day 60", "procedure": "Female nu/nu mice (6-8 weeks of age; implanted subcutaneously with 1 mm^3 A375 melanoma fragments in the flank) were sorted into one control and four treatment groups of ten mice each (group mean tumor size of 96-98 mg). […] The study was terminated on Day 60.\nThe mean days of survival is the number of days after which a neoplasm reached a size of 2.0 g and the animal was euthanized. A complete response is obtained if the tumor is not palpable at the end of the study. A partial response is obtained if the tumor shrinks to a size smaller than its size on Day 1 of the study."}, "[4]": {"test_system": "VM46 Human Colon Carcinoma Xenografts", "conditions": "for toxic deaths: VM46, i.v. qd x 1 at estimated MTD, 6 mice/group", "procedure": "as §1\nFemale NCr-nude mice (6-8 weeks of age, implanted subcutaneously with 1 mm^3 VM46 colon carcinoma fragments in the flank) were sorted into treatment groups of six mice each. […] Dosing was initiated on Day 1. The antitumor compounds were given i.v. at an estimated maximum tolerated dose (MTD) appropriate for each agent on a qd x 1 schedule (single administration of compound). […] Taxotere was given i.v. at a dose of 70 mg/kg on a qd x 1 schedule. The vehicle was given i.v. to control mice in Group 1 in each test on Day 1 (qd x 1) schedule. Treatment groups are detailed in Table 13. The VM46 study ended on Day 64.\nThe results are summarized in table 14 and include mean days of survival (MDS), number of toxic deaths, number of survivors, number of complete or partial responses, and number with stable disease. The mean days of survival is the number of days after which a neoplasm reached a size of 1.5 g and the animal was euthanized. A complete response is obtained if the tumor is not palpable at the end of the study. A partial response is obtained if the tumor shrinks to a size smaller than its size on Day 1 of the study. […]"}, "[5]": {"test_system": "SKMES Human Lung Carcinoma Xenograft", "procedure": "The antitumor compound was prepared in the following vehicle: 10% ethanol and 90% Liposyn III.\nas §2, with “i.v.” for “oral”\nThe mean days of survival is the number of days after which a SKMES neoplasm reached a size of 2.0 g and the animal was euthanized. A complete response is obtained if the tumor is not palpable at the end of the study. A partial response is obtained if the tumor shrinks to a size smaller than its size on Day 1 of the study."}, "[6]": {"conditions": "1418 single i.v. bolus 108 mg/kg (Group 3), 6 mice, Day 60"}},
  "note": "Read-outs that look alike come from different tables or passages of the source.",
  "data": [
    {"smiles": "CCC(=O)OC1CC2OCC2(OC(C)=O)C2C(OC(=O)c3ccccc3)C3(O)CC(OC(=O)C(O)C(NC(=O)OC(C)(C)C)c4ccco4)C(C)=C(C(O)C(=O)C12C)C3(C)C", "note": "(stereo not shown) [Compound 1393, 3'-Desphenyl-3'-(2-furyl)-7-propionyl taxotere]", "values": [
      {"measurement": "stable disease", "setting": "[1]", "result": "one"},
      {"measurement": "complete responses", "setting": "[2]; 1393 single oral bolus 73 mg/kg (Group 6)", "result": "Five"},
      {"measurement": "complete responses", "setting": "[2]; 1393 single oral bolus 104 mg/kg (Group 5)", "result": "Five"},
      {"measurement": "complete regression responses", "setting": "[3]", "result": "nine"}
    ]},
    {"smiles": "CCC(=O)O[C@H]1C[C@H]2OC[C@@]2(OC(C)=O)[C@H]2[C@H](OC(=O)c3ccccc3)[C@]3(O)C[C@H](OC(=O)[C@H](O)[C@@H](NC(=O)OC(C)(C)C)c4ccco4)C(C)=C([C@@H](O)C(=O)[C@]12C)C3(C)C", "note": "[Compound 1393, 3'-Desphenyl-3'-(2-furyl)-7-propionyl taxotere]", "values": [
      {"measurement": "toxic deaths", "setting": "[1]", "result": "no toxic deaths"},
      {"measurement": "toxic deaths", "setting": "[4]", "result": "no toxic deaths"}
    ]},
    {"smiles": "CCC(=O)O[C@H]1C[C@H]2OC[C@@]2(OC(C)=O)[C@H]2[C@H](OC(=O)c3ccccc3)[C@]3(O)C[C@H](OC(=O)[C@H](O)[C@@H](NC(=O)OC(C)(C)C)c4cccs4)C(C)=C([C@@H](O)C(=O)[C@]12C)C3(C)C", "note": "[Compound 1418]", "values": [
      {"measurement": "toxic deaths", "setting": "[1]", "result": "no toxic deaths"},
      {"measurement": "stable disease", "setting": "[1]", "result": "one"},
      {"measurement": "tolerability", "setting": "[1]; mouse, in vivo, iv", "result": "well-tolerated"},
      {"measurement": "toxic deaths", "setting": "[4]", "result": "no toxic deaths"},
      {"measurement": "tolerability", "setting": "[4]; mouse, in vivo, iv", "result": "quite well-tolerated"},
      {"measurement": "Survivors", "setting": "[2]; 90 mg/kg single oral bolus Day 1, 6 mice/group, study end Day 60", "result": 6},
      {"measurement": "MDS relative to Group 1 control", "setting": "[5]; 1418 single i.v. bolus 15 mg/kg (Group 5)", "result": "essentially the same"},
      {"measurement": "complete response", "setting": "[5]; [6]", "result": "One"},
      {"measurement": "partial responses", "setting": "[5]; [6]", "result": "two"},
      {"measurement": "complete responses", "setting": "[5]; 1418 single i.v. bolus 154 mg/kg (Group 2), 10% ethanol/90% Liposyn III, 6 mice, Day 60", "result": "Five"}
    ]}
  ]
}
